Measurements: publication PMC8844836 (Journal of molecular neuroscience : MN, 2020)

Experiments:
Format in all cases: cell-based
EGFR = EGFR tyrosine phosphorylation; conditions: increase caused by PACAP; 30 min pretreatment
NSCLC cells = assay: Proliferation of NSCLC cells
HER2 = HER2 tyrosine phosphorylation; conditions: increase caused by PACAP; 30 min pretreatment
Calu-3 cells = assay: Clonogenic assay, Calu-3 cells

Row | Compound | effect on PACAP-induced EGFR tyrosine phosphorylation (EGFR) | proliferation of NSCLC cells (NSCLC cells) | effect on PACAP-induced HER2 tyrosine phosphorylation (HER2) | effect on PACAP-27-induced increase in colony number (Calu-3 cells; 100 nM PACAP-27) | reduction of colony number (Calu-3 cells; basal colony number, no PACAP, mAb3481 0.1 μg/ml, PACAP(6–38) 5 μM, gefitinib 1 μM, trastuzumab 0.1 μg/ml, 2 weeks) [%] | inhibition of Calu-3 proliferation, clonogenic (Calu-3 cells; clonogenic assay, basal or stimulated growth)
1 | COc1cc2ncnc(Nc3ccc(F)c(Cl)c3)c2cc1OCCCN1CCOCC1 [gefitinib] | blocked | – | – | – | – | –
2 | trastuzumab: a monoclonal antibody (mAb) for HER2 | – | inhibited proliferation | inhibited | impaired | 27 | inhibited growth
